Experimental data reported in patent US20250241301A1, “COMPOSITIONS AND METHODS FOR INHIBITING PATHOGEN GROWTH ON PLANTS AND IMPROVING CROP SAFETY” (priority 2024, published 2025).

Tested on: potato tubers
Experiment: T2H / hexylene glycol vapor treatment of potato tubers, skin lesion count (Table 9)
Conditions: T2H 0.15 mL/kg alone or in mixture, HG alone 0.45 ml/kg, n = 5 tubers

For hexylene glycol [HG], the “Total No. of Lesions 48 h” value (Cecile) was 10, the “Total No. of Lesions 96 h” value (Cecile) was 6 and the “Total No. of Lesions TOTAL” value (Cecile) was 16. The “Total No. of Lesions 48 h” value (Isabella) was 9, the “Total No. of Lesions 96 h” value (Isabella) was 1 and the “Total No. of Lesions TOTAL” value (Isabella) was 10.
